Literature values, collected in patent US20150024952A1, “MOLECULAR PROFILING FOR CANCER” (priority 2010, published 2015).

Tested on: HER2 positive breast cancers
Settings: unselected HER2+ patients

trastuzumab
HER2 positive breast cancers/patients that respond to treatment: about 30%
